## CycPeptMPDB entries from one study

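Lipid, pH, incubation time, direction and concentration are not recorded in the data file. The list need not hold all peptides of the study. Peptides that the database sets to -10, its floor, are left out.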

PAMPA is the parallel artificial membrane permeability assay, which has no cells and reads passive diffusion.
Permeability is given as log10 of P in cm/s; higher (less negative) is more permeable.

compound | PAMPA (log10 cm/s)
CC(C)C[C@@H]1NC(=O)[C@@H](CC(C)C)NC(=O)C[C@H](Cc2ccccc2)NC(=O)[C@H](Cc2ccccc2)NC(=O)[C@@H](CC(C)C)NC(=O)[C@@H]2CCCN2C1=O | -5.92
CC(C)C[C@H]1C(=O)N[C@@H](Cc2ccccc2)C(=O)N2CCC[C@@H]2C(=O)N[C@H](C)C(=O)N(Cc2ccccc2)CC(=O)N[C@@H](Cc2ccccc2)CC(=O)N2CCC[C@@H]2C(=O)N1C | -6.09
CC(C)C[C@@H]1NC(=O)[C@H](C)N(C)C(=O)[C@H]2CCCN2C(=O)[C@H](Cc2ccccc2)NC(=O)[C@@H](CC(C)C)N(C)C(=O)[C@H]2CCCN2C(=O)CN(Cc2ccccc2)C1=O | -5.20
CC(C)C[C@H]1NC(=O)[C@@H](C)NC(=O)[C@@H]2CCCN2C(=O)[C@H](Cc2ccccc2)NC(=O)[C@H](CC(C)C)N(C)C(=O)[C@H]2CCCN2C(=O)CN(Cc2ccccc2)C1=O | -5.71
CC(C)C[C@@H]1NC(=O)[C@@H](C)N(C)C(=O)[C@H](Cc2ccccc2)NC(=O)[C@@H](CC(C)C)N(C)C(=O)[C@@H]2CCCN2C(=O)[C@@H](CC(C)C)NC1=O | -5.19
CC(C)C[C@@H]1C(=O)N[C@@H](Cc2ccccc2)C(=O)N2CCC[C@@H]2C(=O)N[C@@H](Cc2ccccc2)CC(=O)N(C)[C@@H](CC(C)C)C(=O)N(Cc2ccccc2)CC(=O)N2CCC[C@@H]2C(=O)N1C | -5.43
CC(C)C[C@@H]1NC(=O)[C@H]2CCCN2C(=O)[C@H](CC(C)C)N(C)C(=O)[C@@H](CC(C)C)NC(=O)[C@H](C)N(C)C(=O)[C@H]2CCCN2C(=O)[C@H](Cc2ccccc2)NC1=O | -6.94
CCCN1CC(=O)N(C)[C@H](CC(C)C)C(=O)N(C)[C@@H](CC(C)C)C(=O)N2CCC[C@@H]2C(=O)N(Cc2ccccc2)CC(=O)N[C@@H](Cc2ccccc2)C1=O | -5.15
CC(C)C[C@H]1NC(=O)[C@@H]2CCCN2C(=O)[C@H](CC(C)C)N(C)C(=O)[C@@H](CC(C)C)NC(=O)C[C@H](Cc2ccccc2)NC(=O)[C@@H]2CCCN2C(=O)[C@H](Cc2ccccc2)NC1=O | -5.87
CCCN1CC(=O)N(C)[C@H](CC(C)C)C(=O)N(C)[C@@H](CC(C)C)C(=O)N2CCC[C@H]2C(=O)N(Cc2ccccc2)CC(=O)N[C@@H](Cc2ccccc2)C(=O)N2CCC[C@H]2C1=O | -5.39
CCCN1CC(=O)N[C@H](CC(C)C)C(=O)N(Cc2ccccc2)CC(=O)N2CCC[C@H]2C(=O)N[C@@H](CC(C)C)C(=O)N[C@@H](Cc2ccccc2)C1=O | -5.55
CC(C)C[C@H]1C(=O)N(Cc2ccccc2)CC(=O)N2CCC[C@@H]2C(=O)N(Cc2ccccc2)CC(=O)N[C@@H](Cc2ccccc2)C(=O)N(C)[C@@H](C)C(=O)N1C | -5.43
CC(C)C[C@@H]1NC(=O)[C@@H](C)N(C)C(=O)[C@H]2CCCN2C(=O)[C@H](Cc2ccccc2)NC(=O)[C@@H](CC(C)C)N(C)C(=O)[C@H]2CCCN2C(=O)C[C@H](Cc2ccccc2)NC1=O | -6.25
CC(C)C[C@H]1NC(=O)[C@@H]2CCCN2C(=O)[C@@H](CC(C)C)NC(=O)CN(Cc2ccccc2)C(=O)C[C@H](Cc2ccccc2)NC(=O)[C@H]2CCCN2C(=O)[C@H](Cc2ccccc2)NC1=O | -5.75
CCCN1CC(=O)N(C)[C@H](CC(C)C)C(=O)N[C@H](CC(C)C)C(=O)N2CCC[C@@H]2C(=O)N(C)[C@@H](CC(C)C)C(=O)N[C@@H](Cc2ccccc2)C1=O | -4.89
CC(C)C[C@@H]1NC(=O)[C@H](C)N(C)C(=O)[C@H]2CCCN2C(=O)[C@H](Cc2ccccc2)NC(=O)[C@@H](CC(C)C)NC(=O)[C@H]2CCCN2C(=O)C[C@H](Cc2ccccc2)NC1=O | -6.26

Excerpt, the final 2 entries:

compound | PAMPA (log10 cm/s)
CCCN1CC(=O)N(C)[C@H](CC(C)C)C(=O)N[C@H](CC(C)C)C(=O)N2CCC[C@@H]2C(=O)N(C)[C@@H](CC(C)C)C(=O)N[C@@H](Cc2ccccc2)C1=O | -4.89
CC(C)C[C@@H]1NC(=O)[C@H](C)N(C)C(=O)[C@H]2CCCN2C(=O)[C@H](Cc2ccccc2)NC(=O)[C@@H](CC(C)C)NC(=O)[C@H]2CCCN2C(=O)C[C@H](Cc2ccccc2)NC1=O | -6.26

Data: CycPeptMPDB; original report Townsend et al. 2020, doi:10.26434/chemrxiv.13335941.v1.